Values quoted from earlier work in patent US11826586B2, “Method for dyeing keratin material, comprising the use of an organic C1-C6-alkoxy-silane and an alkalising agent” (Henkel AG & Co. KGaA, priority 2019, dated 2023).

Settings: 25° C.

## 3,4,5,6-tetrachloro-2-(1,4,5,8-tetrabromo-6-hydroxy-3-oxoxanthen-9-yl)benzoic acid [Acid Red 92]
  solubility in water: greater than 10 g/L
